Measured values reported in patent publication US20140086939A1, “COMPOSITIONS AND METHODS FOR DETECTING AND TREATING CANCER” (priority 2011, published 2014).

Protein sequences, listed by entry. Tags and fused reporters are not part of them.
UniProt P42227, whole entry: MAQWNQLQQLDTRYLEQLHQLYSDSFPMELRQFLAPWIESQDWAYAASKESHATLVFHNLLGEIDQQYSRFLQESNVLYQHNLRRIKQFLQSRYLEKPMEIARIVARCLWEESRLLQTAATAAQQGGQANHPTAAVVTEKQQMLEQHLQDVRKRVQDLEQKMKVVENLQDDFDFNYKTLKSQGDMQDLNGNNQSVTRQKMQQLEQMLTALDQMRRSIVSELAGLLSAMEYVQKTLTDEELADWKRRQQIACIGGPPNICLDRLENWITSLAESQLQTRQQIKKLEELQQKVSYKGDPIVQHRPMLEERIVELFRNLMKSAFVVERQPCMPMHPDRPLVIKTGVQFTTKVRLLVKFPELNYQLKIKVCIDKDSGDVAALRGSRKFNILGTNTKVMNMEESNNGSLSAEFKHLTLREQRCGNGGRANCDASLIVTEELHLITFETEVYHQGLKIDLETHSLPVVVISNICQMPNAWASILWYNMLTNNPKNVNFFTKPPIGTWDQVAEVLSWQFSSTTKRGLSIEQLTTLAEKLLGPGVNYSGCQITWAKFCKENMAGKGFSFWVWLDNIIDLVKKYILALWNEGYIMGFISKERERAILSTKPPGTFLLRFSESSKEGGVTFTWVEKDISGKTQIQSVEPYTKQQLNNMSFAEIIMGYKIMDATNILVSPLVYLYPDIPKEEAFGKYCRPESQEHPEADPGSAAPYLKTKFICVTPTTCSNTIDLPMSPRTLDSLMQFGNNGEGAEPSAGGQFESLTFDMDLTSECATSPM

Target: T1, STAT3 (Mus musculus, UniProt P42227)
T1 construct: from tissue; host or cells: subcutaneous tumors formed by Ikkβf/f or IkkβΔ dih10 cells in C57BL/6 mice
Assay: STAT3 phosphorylation in lysates of dih10 tumors (immunoblot)
Type: in vivo
Text: FIG. 22. ROS-mediated SHP1/2 inhibition in IKKβ-deficient HCCs correlates with STAT3 activation and accelerated tumor growth. (A) Tumors derived from Ikkβ^f/f (f/f) and Ikkβ^Δ (Δ) dih10 cells were collected and lysed. Tumor lysates were immunoprecipitated with an anti-JAK2 antibody and examined for JAK2 tyrosine phosphorylation with PY20 antibody. Tumor lysates were also used for immunoblot analyses with the indicated antibodies. (B) SHP1 and SHP2 were immunoprecipitated from above tumor lysates and their phosphatase activities were measured (n=4; *: p<0.05). (C) Fresh frozen sections of HCCs from transplanted MUP-uPA mice were analyzed for superoxide accumulation by DHE staining. Fluorescence intensity in several fields was quantitated by ImageJ and relative average increases in fluorescent intensity are shown (n=3; *: p<0.01). […] (D) Tumors were collected from BHA treated and untreated mice, lysed and SHP1/2 phosphatase activities were measured. […] (F) Tumor volume was measured weekly (n=5; p<0.01, Δ/ctrl vs. Δ/BHA by one way ANOVA). […]
FIG. 30. […] Tumor volume was measured (n=5; p<0.05, f/f/vehicle vs. f/f/AG490; p<0.01, Δ/vehicle vs. Δ/AG490 by one way ANOVA). (B) After 6 weeks, tumors were removed, lysed and analyzed by immunoblotting with the indicated antibodies. […] Tumor volume was measured (n=5; p<0.05, f/f/vehicle vs. f/f/S3I-201; p<0.01, Δ/vehicle vs. Δ/S3I-201 by one way ANOVA). […]

With `Cc1ccc(S(=O)(=O)OCC(=O)Nc2ccc(C(=O)O)c(O)c2)cc1` [S3I-201] the “STAT3 activity in dih cell tumors” value was “effective inhibition” and the “STAT3 phosphorylation in tumors” value (S3I-201 5 mg/kg i.p. daily, tumors after 6 weeks) was “inhibited STAT3 phosphorylation”.
